Source: patent US20250163169

System: 43-mer covering the stalk region of CD95L (residue 103 to residue 145)

## MMP13
  percentage of degradation of the 43-mer (LC-MS/MS): more of 20% of cleavage
